## Cyclic peptide permeability, from CycPeptMPDB

Collected by the curators of CycPeptMPDB (Li et al. 2023) from Townsend et al. 2020, doi:10.26434/chemrxiv.13335941.v1.

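The data file gives no further conditions (lipid, pH, time, direction or concentration), and values from different papers need not be comparable. The list need not hold all peptides of the study. Entries at the database's floor value (log10 P of -10) are not listed.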

PAMPA measures passive passage through an artificial lipid membrane.
Permeability is in 10^-6 cm/s, converted from the database's log10 values; higher is more permeable.

- CC(C)C[C@H]1NC(=O)[C@@H]2CCCN2C(=O)CN(Cc2ccccc2)C(=O)CN(Cc2ccccc2)C(=O)[C@@H](C)NC(=O)[C@@H]2CCCN2C(=O)[C@H](Cc2ccccc2)NC1=O: PAMPA 0.69 × 10^-6 cm/s
- CC(C)C[C@H]1C(=O)N[C@@H](Cc2ccccc2)CC(=O)N2CCC[C@H]2C(=O)N(Cc2ccccc2)CC(=O)N[C@@H](Cc2ccccc2)C(=O)N(C)[C@@H](C)C(=O)N1C: PAMPA 13 × 10^-6 cm/s
- CCCN1CC(=O)N(Cc2ccccc2)CC(=O)N[C@@H](CC(C)C)C(=O)N2CCC[C@H]2C(=O)N[C@@H](CC(C)C)C(=O)N[C@@H](Cc2ccccc2)C(=O)N2CCC[C@@H]2C1=O: PAMPA 0.6 × 10^-6 cm/s
- CCCN1CC(=O)N[C@@H](CC(C)C)C(=O)N(C)[C@@H](CC(C)C)C(=O)N2CCC[C@@H]2C(=O)N(C)[C@H](CC(C)C)C(=O)N[C@@H](Cc2ccccc2)C1=O: PAMPA 14 × 10^-6 cm/s
- CC(C)C[C@@H]1NC(=O)CN(Cc2ccccc2)C(=O)[C@@H](C)NC(=O)[C@@H]2CCCN2C(=O)[C@H](Cc2ccccc2)NC(=O)CN(Cc2ccccc2)C(=O)[C@@H]2CCCN2C1=O: PAMPA 1 × 10^-6 cm/s
- CC(C)C[C@H]1NC(=O)C[C@H](Cc2ccccc2)NC(=O)[C@H]2CCCN2C(=O)[C@H](Cc2ccccc2)NC(=O)CN(Cc2ccccc2)C(=O)[C@@H]2CCCN2C(=O)C[C@H](Cc2ccccc2)NC1=O: PAMPA 1 × 10^-6 cm/s
- CCCN1CC(=O)N(Cc2ccccc2)CC(=O)N[C@@H](CC(C)C)C(=O)N2CCC[C@H]2C(=O)N[C@H](CC(C)C)C(=O)N[C@@H](Cc2ccccc2)C(=O)N2CCC[C@@H]2C1=O: PAMPA 0.72 × 10^-6 cm/s
- CC(C)C[C@@H]1NC(=O)[C@H]2CCCN2C(=O)[C@@H](CC(C)C)NC(=O)CN(Cc2ccccc2)C(=O)[C@H](C)N(C)C(=O)[C@H]2CCCN2C(=O)[C@H](Cc2ccccc2)NC1=O: PAMPA 0.45 × 10^-6 cm/s
- CC(C)C[C@@H]1C(=O)N2CCC[C@H]2C(=O)N(C)[C@H](CC(C)C)C(=O)N[C@@H](Cc2ccccc2)C(=O)N2CCC[C@H]2C(=O)N[C@@H](Cc2ccccc2)CC(=O)N(Cc2ccccc2)CC(=O)N1C: PAMPA 1.7 × 10^-6 cm/s
- CCCN1CC(=O)N[C@@H](CC(C)C)C(=O)N[C@@H](Cc2ccccc2)CC(=O)N2CCC[C@H]2C(=O)N[C@@H](CC(C)C)C(=O)N[C@@H](Cc2ccccc2)C1=O: PAMPA 1 × 10^-6 cm/s
- CC(C)C[C@H]1C(=O)N(Cc2ccccc2)CC(=O)N2CCC[C@@H]2C(=O)N(Cc2ccccc2)CC(=O)N[C@@H](Cc2ccccc2)C(=O)N[C@H](C)C(=O)N1C: PAMPA 2.7 × 10^-6 cm/s
- CC(C)C[C@@H]1NC(=O)[C@H]2CCCN2C(=O)[C@H](CC(C)C)NC(=O)CN(Cc2ccccc2)C(=O)C[C@H](Cc2ccccc2)NC(=O)[C@H](Cc2ccccc2)NC1=O: PAMPA 3.1 × 10^-6 cm/s
- CC(C)C[C@@H]1NC(=O)[C@@H]2CCCN2C(=O)C[C@H](Cc2ccccc2)NC(=O)CN(Cc2ccccc2)C(=O)C[C@H](Cc2ccccc2)NC(=O)[C@H](Cc2ccccc2)NC1=O: PAMPA 0.95 × 10^-6 cm/s
- CCCN1CC(=O)N[C@@H](CC(C)C)C(=O)N[C@@H](Cc2ccccc2)CC(=O)N2CCC[C@H]2C(=O)N(Cc2ccccc2)CC(=O)N[C@@H](Cc2ccccc2)C(=O)N2CCC[C@H]2C1=O: PAMPA 1.1 × 10^-6 cm/s
- CCCN1CC(=O)N[C@@H](CC(C)C)C(=O)N[C@@H](Cc2ccccc2)CC(=O)N2CCC[C@@H]2C(=O)N[C@H](CC(C)C)C(=O)N[C@@H](Cc2ccccc2)C1=O: PAMPA 0.81 × 10^-6 cm/s
- C[C@@H]1NC(=O)[C@@H]2CCCN2C(=O)[C@H](Cc2ccccc2)NC(=O)CN(Cc2ccccc2)C(=O)[C@@H]2CCCN2C(=O)C[C@H](Cc2ccccc2)NC(=O)CN(Cc2ccccc2)C1=O: PAMPA 0.39 × 10^-6 cm/s
- C[C@H]1NC(=O)[C@H](Cc2ccccc2)NC(=O)CN(Cc2ccccc2)C(=O)[C@@H]2CCCN2C(=O)C[C@H](Cc2ccccc2)NC(=O)CN(Cc2ccccc2)C1=O: PAMPA 2.2 × 10^-6 cm/s

Excerpt, the opening 2 entries:

| structure (SMILES) | PAMPA (10^-6 cm/s) |
|---|---|
| CC(C)C[C@H]1NC(=O)[C@@H]2CCCN2C(=O)CN(Cc2ccccc2)C(=O)CN(Cc2ccccc2)C(=O)[C@@H](C)NC(=O)[C@@H]2CCCN2C(=O)[C@H](Cc2ccccc2)NC1=O | 0.69 |
| CC(C)C[C@H]1C(=O)N[C@@H](Cc2ccccc2)CC(=O)N2CCC[C@H]2C(=O)N(Cc2ccccc2)CC(=O)N[C@@H](Cc2ccccc2)C(=O)N(C)[C@@H](C)C(=O)N1C | 13 |